## Antibody variant affinities, Ab-14 heavy chain, assay B

Data: MIT Lincoln Laboratory AlphaSeq set, Li et al. 2023, doi:10.1038/s41467-023-39022-2, as distributed in FLAb.

Target: peptide PDVDLGDISGINAS, taken from heptad repeat 2 (HR2) of SARS-CoV-2 spike.

The variants keep the light chain, the linker and the frameworks of Ab-14 (scFv order VH, three GGGGS repeats, VL).
VH: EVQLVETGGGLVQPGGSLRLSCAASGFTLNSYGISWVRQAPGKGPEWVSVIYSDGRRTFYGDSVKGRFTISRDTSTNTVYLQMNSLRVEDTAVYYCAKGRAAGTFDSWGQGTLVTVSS
VL: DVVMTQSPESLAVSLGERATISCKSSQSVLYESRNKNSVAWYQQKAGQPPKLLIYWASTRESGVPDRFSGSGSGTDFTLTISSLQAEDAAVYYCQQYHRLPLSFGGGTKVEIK

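The parent was found by panning a naive human phage display library on the peptide. This is the validation round: designs drawn from the data on random variants, tested in the same kind of assay. Several design methods are mixed in this list. AlphaSeq pools MATa yeast showing the antibodies with MATalpha yeast showing the peptide. The frequency of each diploid, read from paired DNA barcodes, reflects how well the two displayed proteins bind. Read counts were normalised to the haploid input and turned into Kd by a linear fit to BCL2-family pairs of known affinity, for each replicate. The assay was run in six technical replicates.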

Each variant is given by its three heavy chain CDRs, as the data file delimits them; those of the parent are GFTLNSYGIS, VIYSDGRRTFYGDSVK, GRAAGTFDS. The read-out is the apparent dissociation constant on a log10 scale (nM): the lower, the stronger. A mean of the replicates is given; it leaves out those without a signal. An entry "no signal" has no value in the source: the pair was not observed among the diploids in any replicate. This suggests poor binding but is not conclusive.

CDR-H1 | CDR-H2 | CDR-H3 | mean, log10 nM | seen in
GFELNEYGIS | VIYSDGRRTFYGDSVK | GRTAGTFDE | -0.02 | 6 of 6
GFDLNSYGIS | VIYSDGRRIFGGDSVK | GRPAGWFNS | 2.11 | 1 of 6
GFTLNEYGIS | VIYSDGRRTFYGDSVK | GRAAGTFIF | 0.24 | 6 of 6
GFELNSYGIS | VIYSDGRRTFYADSVK | GRAAGTFDS | 0.40 | 12 of 12
GFDLNSYGIS | VIYSDGRRTFYADSVK | GRNAGTFDT | -0.38 | 6 of 6
GFNLDEYGIS | VIYADGQRTFYADSVK | GSHAGTFDT | -0.66 | 6 of 6
GFTLEDYGIS | VIYSDGRRTSYGDSVK | GRAAGTKDS | no signal | 0 of 6
GFTLNSYGIT | VIYSDGRRTFYGDSVK | GRAAGTFWS | no signal | 0 of 6
GFDLDEYGIS | VIYADGMRTAYTDNVK | GNVAGTFDV | 0.02 | 6 of 6
GFSLNSYGIS | VIYSDGRRTFYGDDVK | GKTAGTFDS | 0.14 | 6 of 6
GFDLNEYGIS | VIYADGMRTAYSDSVK | GNTAGTFDV | -0.10 | 6 of 6
GFTLNSYGIS | VIYSDGRRTFYIDSVK | GRAAGTFES | no signal | 0 of 6
GFSLDEYGIS | VIYADGNRQAYIDAVK | GNYGGDFNE | no signal | 0 of 6
GFDLNEYGIS | VIYADGRRTFYTDSVK | GTNAGTFDS | -0.49 | 6 of 6
GFDLNEYGIS | VIYADGVRTAYVDSVK | GNEAGTFDV | -0.20 | 6 of 6
GFTLLSYGIS | VIYSDGRRTAYGDSVK | GRAAGTFDL | 1.48 | 6 of 6
GFALNEYGIS | VIYADGSRSAYTESVK | GVHNIDVNV | no signal | 0 of 6
GFDLNEYGIS | VIYADGMRTAYADDVK | GGNAGTFDT | -1.35 | 6 of 6
GFDLNEYGIS | VIYADGRRTFYTDSVK | GQIAGTFDV | -0.12 | 6 of 6
GFQLNEYGIS | VIYSDGRRTFYGDSVK | GEAAGTFDK | 1.65 | 6 of 6
GFDLNEYGIS | VIYADGVRTFYSDSVK | GEVAGTFDQ | -0.44 | 6 of 6
GFDLNEYGIS | VIYADGRRTFYADSVK | GKIAGTFNQ | -0.56 | 6 of 6
GFDLNEYGIS | VIYADGVRKAYADSVK | GNQAGTFDI | -0.88 | 6 of 6
GMDLNEYGIS | VIYADGRRTAYINQVK | GKQRVVVSH | no signal | 0 of 6
GFDLNEYGIS | VIYADGRRTFYADSVK | GQNAGTFVL | no signal | 0 of 6
GFDLDEMGIS | VIYADGKRAAYQGNVK | GTNNGNFNE | no signal | 0 of 6
GFSLNSYGIS | VIYSDGRRTFYVDSVK | GREAGTFDS | 0.69 | 3 of 6
KFSLNWYGIS | VIYSDGRRTFYGDSVK | GRTAGTFDS | no signal | 0 of 6
GFDLNSYGIS | VIYSDGRRTAYKDSVK | GRAAGTFDS | 0.66 | 6 of 6
GFFLNEYGIS | VIYSDGRRTFYGDSVK | GQAAGTFDT | 1.33 | 6 of 6
GTTLNSYGIS | NIYSDGQRTFYMDSVK | GRAAGTFDS | no signal | 0 of 6
EDSLNEYGIS | VIYADGVRAAYADPVK | GENDGLFDQ | no signal | 0 of 6
GFTLNSYGIS | VIYSDGMRTFYSDSVK | GATAGTFDS | 1.04 | 6 of 6
GFDFQEYGIS | VIYADGQRAYYSDAVK | GNIGAIFSD | no signal | 0 of 6
GFDLNEYGIS | VIYADGKRTAYIDSVK | GNVAGTFDI | -0.72 | 6 of 6
GFTINSYGVS | VIYSDGRRTFYSDSVK | GRDGGTFDD | no signal | 0 of 6
GFTLNSYGIS | VIYSDGIRTFYGDSVK | GREAGTDDS | 3.75 | 1 of 18
GFDLNEYGIS | VIYADGLRTFYTDSVK | GEAAGTFDV | -0.18 | 6 of 6
GFTLNSYGIS | VIYSDGRRTFYKDDVK | GEQAGTFDD | 1.97 | 6 of 6
GFNLNSYGIS | VIYSDGRRTFYTDRVK | GEAAGTFDS | 2.27 | 6 of 6
GFQLNSYGIS | VIYSDGRRTFYGDSVK | GEAAGTFDK | 1.24 | 6 of 6
GFTKNSYGIS | VIYSDGVRTFYGDNVK | GLAAGTFDS | no signal | 0 of 6
GFDLESYGIS | VIYADGRRTFYSDSVK | GVNAGTFDI | no signal | 0 of 6
GFDLNEYGIS | VIYADGQRTAYADSVK | GENAGTFVV | no signal | 0 of 6
GFSLNDYGIS | VIYSDGRRTFYGDSVK | GRTAGTFWS | 1.92 | 2 of 6
GFQLNDYGIS | VIYSDGRRTFYGDSVK | GRAAGTFVS | no signal | 0 of 6
GFTLNSYGIS | VIYADGYRTFYGDSVK | GSAAGLFDI | no signal | 0 of 6
GFELDEYGIS | VIYADGRRTFYADSVK | GENAGTFMM | no signal | 0 of 6
GFDLNEYGIS | VIYADGRRTFYADSVK | GSVAGTFIQ | 0.54 | 5 of 6
GFSLNSYGIS | VIYSDGRRTFYGDSVK | GVNAGTFDS | 0.61 | 6 of 6
GFDLNEYGIS | VIYADGMRTSYADDVK | GNVAGTFDM | 0.16 | 6 of 6
GFALNSYGIS | VIYSDGRRTFYQDSVK | GQLAGTFDS | 1.37 | 6 of 6

Picked from the list: the 8 lowest averages where every replicate gave a value.

CDR-H1 | CDR-H2 | CDR-H3 | mean, log10 nM | seen in
GFDLNEYGIS | VIYADGMRTAYADDVK | GGNAGTFDT | -1.35 | 6 of 6
GFDLNEYGIS | VIYADGVRKAYADSVK | GNQAGTFDI | -0.88 | 6 of 6
GFDLNEYGIS | VIYADGKRTAYIDSVK | GNVAGTFDI | -0.72 | 6 of 6
GFNLDEYGIS | VIYADGQRTFYADSVK | GSHAGTFDT | -0.66 | 6 of 6
GFDLNEYGIS | VIYADGRRTFYADSVK | GKIAGTFNQ | -0.56 | 6 of 6
GFDLNEYGIS | VIYADGRRTFYTDSVK | GTNAGTFDS | -0.49 | 6 of 6
GFDLNEYGIS | VIYADGVRTFYSDSVK | GEVAGTFDQ | -0.44 | 6 of 6
GFDLNSYGIS | VIYSDGRRTFYADSVK | GRNAGTFDT | -0.38 | 6 of 6

A sequence that the file lists under several names has all its replicates pooled. Three control strains display no target. For all heavy chain designs, 1% of the pairings with them gave a signal, with a median of 2.08 and one signal in twenty below 0.84, so weak values seen in few replicates may be background. The parent sequence was in this pool as ten entries: three were never detected, three once, and four in most replicates, with averages from 0.34 to 2.37. A sequence measured in both rounds can read differently, since the two assays cover different ranges. The authors' rule: three or more of the six replicates give a measured affinity, fewer mean a poor binder.